Earlier results, collected in patent US20120295965A1, “FUSED THIOPHENES AS DUAL INHIBITORS OF EGFR/VEGFR AND THEIR USE IN THE TREATMENT OF CANCER” (priority 2009, published 2012).

Target: EGFR (Homo sapiens, UniProt P00533)
Details: known inhibitors; cited from earlier work

Structure (SMILES): COc1cc2ncnc(Nc3cccc(Cl)c3)c2cc1OC [AG1478]
- strength as EGFR inhibitor: potent EGFR inhibitor
